B1: F200 (row r140, SEQ ID NO 86) (peptide)
peptide: ERRVACTQADGLLCESDPLKALLSYFE
notes: this is the first
B2: F202 (peptide)
peptide: ELQGFCELLATVTGVTGLGCLDYQPIE
B3: F204 (peptide)
peptide: ECDFYCALSRLSGQPRDRMPNYPGTSE
B4: F206 (peptide)
peptide: EYRQECACSVGAVGFLCGLACLARSGE
B5: F211 (peptide)
peptide: EERATPRWRGYEWFDAQVERE
B6: F212 (peptide)
peptide: ENRSGELWEGYGWFNMQVRGE
B7: F214 (peptide)
peptide: ESFYSCLDSLVTGTPQEDRGPWERCRE
B8: F226 (peptide)
peptide: ETFYACLEFLLSGNPEGNSGPWDRCREE
B9: F227 (peptide)
peptide: ESFYSCLASLVTGIPRSNSGTQVFCREE
B10: P238 (row r193, SEQ ID NO 203) (peptide)
peptide: VEGRGLFYDLLRQLLARRQNG
modifications: N-terminal acetyl (Ac-)
B11: F238 (row r195, SEQ ID NO 207) (peptide)
peptide: VEGRGLFYDLLRQLLARRQNG
modifications: N-terminal biotin (Biotin-)
notes: stands before F237, may be F236
B12: F237 (peptide)
peptide: SFYSCLESLVNGPAEKSRGQWDGCRGSLDESFYDWFERQLG
B13: F260 (peptide)
peptide: ERDDQDWEGYEWFEEQVGK
B14: F261 (peptide)
peptide: EEDDQNWEGYNWFNEQLGK
B15: F262 (peptide)
peptide: EDDDQNWEGYEWFERQLGK
B16: F250 (peptide)
peptide: SFYSCLESLVNGPAEKSRGQWDGCRK
notes: also called RP33/F250; RP33
B17: F293 (peptide)
peptide: SFYSCLESLVQGPAEKSRGQWEGCRK
B18: F298 (peptide)
peptide: SFYSCLESLVNAPAEKSRGQWDACRK
B19: F249 (peptide)
peptide: SFYSCLESLVNGPAEKSRGQWDGCR
B20: F255 (peptide)
peptide: EGSLDESFYDWFERQLGGYSWLRDVLMEKQAQLKREGSVGRQE
modifications: two Pox units (8-amino-3,6-dioxaoctanoic acid; printed 'POX2') between the two peptide parts
B21: F263 (peptide)
peptide: VQDDCRGRPCGDADSFYEWFDQQAS
B22: F264 (peptide)
peptide: RQWDCRGRPCGDAESFYEWFDQQRS
B23: F267 (peptide)
peptide: ETGRECWGRPCGEADSFYDWFVQQGSE
B24: F268 (peptide)
peptide: EIQRDCQGRPCGDAANFYDWFVQQDSE
B25: F270 (peptide)
peptide: ESYGDCRDRPCGDAPNFYDWFVQQASE
B26: F272 (peptide)
peptide: TLNPRGPWEGSRGSMDDSFYRWFERQLE
B27: F273 (peptide)
peptide: TGAPQPNRGPLDRCRGSLDECFYGWFERQLL
B28: F274 (peptide)
peptide: TFYSGPVSLLTGTPRTNRSAWERGRGSLDDSFYDWFERQLSR
B29: F275 (peptide)
peptide: GGVGSGSRDESFYDWFERQLA
B30: F288 (peptide)
peptide: ESDVWAQPQRRNDWPGYHWLSR
modifications: N-terminal 'Ac-' as printed
B31: F102 (peptide)
peptide: GFREGNFYEWFQAQVT
B32: F103 (peptide)
peptide: CWARPCGDAANFYDWFVQQAS
notes: also called C1; D112
B33: F105 (peptide)
peptide: GSLDESFYDWFERQLGWLDQERAWLWCEISGRGCLS
B34: F106 (peptide)
peptide: WLDQERAWLWCEISGRGCLSGSLDESFYDWFERQLG
B35: F107 (peptide)
peptide: WLDQERAWLWCEISGRGCLSDDDKGSLDESFYDWFERQLG
B36: F113 (peptide)
peptide: SFYSCLESLVNGGAERSDGQWEGCR
B37: F114 (peptide)
peptide: GVDEVRAWLWCQISGLGCES
B38: F115 (peptide)
peptide: DMGDVECEDPFYDWFACQVRDTEFDE
B39: F135 (peptide)
peptide: EFFYDCLAALLQGVARYHDLCAVEITE
B40: F141 (peptide)
peptide: IFYSCLASLLHGGPQRNTGPWERCRR
B41: F144 (peptide)
peptide: SFYSCLGSLLTGAPQPIRGAWDRCR
B42: F146 (peptide)
peptide: CHGSLDESFYDWFERQLGKK
modifications: printed with 'CHO' before GSLDESFYDWFERQLGKK; not explained (may be an N-terminal aldehyde group)
B43: F154 (peptide)
peptide: DDDKGSLDESFYDWFERQLGKKWLDQERAWLWCEISGRGCLS
B44: F155 (peptide)
peptide: WLGQERDWEWCQVAGRGCLGGGSGGSGSLDDSFYGWFVRQLG
B45: F156 (peptide)
peptide: GSLDESFYRWFERQLEGGSGGSGLEQERAGTWCENSGRGCLH
B46: F160 (peptide)
peptide: VGRASGFPENFYDWFGRQLSLQSGEQ
B47: F161 (peptide)
peptide: SACQFDCHENFYDWFARQVSGGAAYG
B48: F162 (peptide)
peptide: SAAQLFFQESFYDWFLRQVAESSQPN
B49: F163 (peptide)
peptide: ESFYSCLASLWSGTGGSSRGRWEGCRE
B50: F166 (peptide)
peptide: IWIACLDELLRGQVWSSCRRRAPIG
B51: F175 (peptide)
peptide: EFLTRLLERLGLSWERGEAGGPYAQAE

Amino acid sequences for entries named in this document (tags omitted). Residues count along the entry.
UniProt P08069, 31-1367 limits assumed: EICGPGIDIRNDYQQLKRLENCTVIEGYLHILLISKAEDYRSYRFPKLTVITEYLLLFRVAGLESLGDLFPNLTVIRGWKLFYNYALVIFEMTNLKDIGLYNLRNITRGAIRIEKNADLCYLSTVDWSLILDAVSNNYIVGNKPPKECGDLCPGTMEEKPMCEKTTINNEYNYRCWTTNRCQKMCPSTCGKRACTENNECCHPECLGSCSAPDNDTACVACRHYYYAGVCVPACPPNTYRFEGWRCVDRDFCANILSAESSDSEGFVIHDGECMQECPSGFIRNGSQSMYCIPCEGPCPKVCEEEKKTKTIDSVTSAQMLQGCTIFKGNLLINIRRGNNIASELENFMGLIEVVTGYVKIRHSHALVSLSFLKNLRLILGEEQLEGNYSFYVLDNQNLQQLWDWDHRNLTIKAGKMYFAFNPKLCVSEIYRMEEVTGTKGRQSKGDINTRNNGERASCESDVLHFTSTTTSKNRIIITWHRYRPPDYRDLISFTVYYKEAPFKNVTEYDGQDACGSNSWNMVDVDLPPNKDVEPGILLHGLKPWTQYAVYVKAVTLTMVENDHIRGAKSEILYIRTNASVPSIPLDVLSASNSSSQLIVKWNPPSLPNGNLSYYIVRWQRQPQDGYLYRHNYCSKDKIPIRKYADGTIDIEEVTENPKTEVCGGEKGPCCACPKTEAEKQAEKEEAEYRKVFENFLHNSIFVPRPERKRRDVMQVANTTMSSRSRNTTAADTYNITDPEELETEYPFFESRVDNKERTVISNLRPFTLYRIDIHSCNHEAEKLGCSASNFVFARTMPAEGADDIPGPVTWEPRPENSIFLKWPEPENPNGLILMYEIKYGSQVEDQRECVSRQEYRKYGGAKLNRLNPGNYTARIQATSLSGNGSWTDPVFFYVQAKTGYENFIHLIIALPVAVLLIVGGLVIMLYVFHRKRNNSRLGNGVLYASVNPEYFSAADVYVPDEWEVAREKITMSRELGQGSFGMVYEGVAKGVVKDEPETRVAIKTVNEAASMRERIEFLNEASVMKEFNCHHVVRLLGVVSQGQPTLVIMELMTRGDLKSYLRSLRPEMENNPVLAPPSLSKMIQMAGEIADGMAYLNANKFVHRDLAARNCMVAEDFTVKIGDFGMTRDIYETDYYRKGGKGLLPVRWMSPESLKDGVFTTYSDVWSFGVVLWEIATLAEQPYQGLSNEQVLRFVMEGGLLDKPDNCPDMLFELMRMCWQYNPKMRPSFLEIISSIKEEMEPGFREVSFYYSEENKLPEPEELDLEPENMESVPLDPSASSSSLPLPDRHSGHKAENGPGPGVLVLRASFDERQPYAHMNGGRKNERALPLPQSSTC
UniProt P08069, 31-935: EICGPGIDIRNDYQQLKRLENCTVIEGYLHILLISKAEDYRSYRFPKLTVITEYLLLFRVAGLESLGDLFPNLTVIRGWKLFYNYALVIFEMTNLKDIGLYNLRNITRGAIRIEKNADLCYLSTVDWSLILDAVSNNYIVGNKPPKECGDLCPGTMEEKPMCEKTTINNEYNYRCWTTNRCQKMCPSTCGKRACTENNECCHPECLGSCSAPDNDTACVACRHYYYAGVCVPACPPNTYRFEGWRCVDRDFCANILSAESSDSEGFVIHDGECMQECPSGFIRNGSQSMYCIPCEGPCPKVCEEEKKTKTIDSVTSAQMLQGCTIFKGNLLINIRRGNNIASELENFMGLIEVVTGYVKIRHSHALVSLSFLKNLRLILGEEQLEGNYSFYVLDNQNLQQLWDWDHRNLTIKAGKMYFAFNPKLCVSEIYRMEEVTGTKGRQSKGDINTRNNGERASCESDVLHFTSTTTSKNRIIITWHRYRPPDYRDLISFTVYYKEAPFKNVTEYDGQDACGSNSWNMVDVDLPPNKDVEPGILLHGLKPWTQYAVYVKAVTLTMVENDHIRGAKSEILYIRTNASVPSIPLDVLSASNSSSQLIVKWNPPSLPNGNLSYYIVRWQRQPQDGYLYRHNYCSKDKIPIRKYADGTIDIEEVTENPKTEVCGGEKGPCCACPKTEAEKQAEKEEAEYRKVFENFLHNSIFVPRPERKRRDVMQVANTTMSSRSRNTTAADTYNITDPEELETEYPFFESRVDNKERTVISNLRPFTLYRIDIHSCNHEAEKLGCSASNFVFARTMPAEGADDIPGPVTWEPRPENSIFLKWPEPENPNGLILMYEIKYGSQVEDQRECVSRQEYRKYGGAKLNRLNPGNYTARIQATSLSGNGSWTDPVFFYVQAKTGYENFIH

What was measured:
[1] = target: T1, human insulin-like growth factor-1 receptor (HIGF-1R) (human, UniProt P08069 31-1367); assay: 125I-IGF-1 displacement, PEG-assay
T1 construct: Detergent-solubilised receptor purified on WGA-agarose; also called HIGFIR
Description: IGF-1R affinity studies were generally performed as follows. […] The day before harvest cells were moved to serum free conditions and before harvest the cells were rinsed with and ice cold PBS solution. The cells were solubilized in cold lysis buffer (4 ml lysis buffer/1×10⁸ cells); vortexed vigorously to lysis in lysis buffer (50 mM Hepes (pH 8.0); 150 mM NaCl; 1% Triton X-100; 2 mM EDTA; 10 μg/mlaprotinin; 0.5 mM PEFABLOC (Roche)); and the lysate centrifuged at 4° C., 20000 rpm, for 15 minutes. […] In some cases, human insulin receptor (HIR) affinity for select test peptides was similarly measured.

[2] = target: T1, human insulin-like growth factor-1 …; assay: 125I-IGF-1 displacement, SPA-assay
Text: In certain cases, a scintillation proximity assay (SPA assay) was used to determine IGF-1R affinity.

[3] = target: T2, His-tagged soluble recombinant human IGF-IR (srhIGF-1R-his; R&D systems) (human, UniProt P08069 31-935); assay: AlphaScreen competition with biotinylated hIGF-1 on srhIGF-1R-his
T2 construct: extracellular domain; Bought protein; also called extra-cellular domain of IGF-1R; not shown: His tag
Description: Binding Assays. […] Detection of the receptor ligand interaction was measured in an amplified luminescent proximity homogeneous assay (ALPHAScreen; BioSignal-Packard, Montreal). The assay was performed in 384-well Nunc™ white polystyrene microplates (Nalge Nunc International, Naperville, Ill.) with a final volume of 40 μL. […] Each concentration of competitor was assayed in duplicate. […] The second step of the assay was to add acceptor beads and the incubation continued for 0.5 hr. The final step was to add donor beads and the incubation continued for an additional 1 hr. […] Primary data were background corrected, normalized to buffer controls and then expressed as % Specific Binding. The data were fit to a four-parameter non-linear regression analysis (y=min+(max-min)/(1+10̂((log IC₅₀-x)*Hillslope))), which was used to determine IC₅₀ values. The Z′-factor for this assay is greater than 0.7 (Z′=1-(3σ++3σ−)/|μ+−μ−|) and the signal-to-background (SB) ratio was between 40 and 70.

[4] = target: T3, Human IGF-1R (HIGF-1R), purified from BHK cells stably transfected with IGF-1R cDNA (human, UniProt P08069 31-1367); assay: competition with 125I-IGF-1 on purified HIGF-1R (IGF-1 displacement)
T3 construct: Receptor preparation of the PEG, SPA and kinase assays; also called HIGFIR; human insulin-like growth factor-1 receptor

| Binder | Kd [1] | further results |
| --- | --- | --- |
| B1 | 54 nM | – |
| B2 | 25000 nM | – |
| B3 | 2100 nM | – |
| B4 | 16000 nM | – |
| B5 | 11000 nM | – |
| B6 | 21000 nM | – |
| B7 | 440 nM | Kd [2]: 12000 nM |
| B8 | 1700 nM | – |
| B9 | 140 nM | Kd [2]: 330 nM |
| B10 | 320 nM | – |
| B11 | 280 nM | – |
| B12 | 370 nM | Kd [2]: 430 nM |
| B13 | 1800 nM | – |
| B14 | 710 nM | Kd [2]: 2400 nM |
| B15 | 750 nM | Kd [2]: 2300 nM |
| B16 | – | IC50 [3]: 78 nM |
| B17 | – | IC50 [3]: 9.2 nM; IC50 [4]: 89 nM |
| B18 | – | IC50 [3]: 5.2 nM; IC50 [4]: 64 nM |
| B19 | – | IC50 [3]: 28 nM; IC50 [4]: 190 nM |
| B20 | – | IC50 [3]: 1600 nM; IC50 [4]: 13000 nM |
| B21 | – | IC50 [3]: 14 nM; IC50 [4]: 25 nM |
| B22 | – | IC50 [4]: 44 nM |
| B23 | – | IC50 [3]: 1900 nM; IC50 [4]: 1100 nM |
| B24 | – | IC50 [3]: 2300 nM; IC50 [4]: 370 nM |
| B25 | – | IC50 [3]: 36 nM |
| B26 | – | IC50 [4]: 1500 nM |

| Binder | Kd [1] | further results |
| --- | --- | --- |
| B27 | – | IC50 [4]: 760 nM |
| B28 | – | IC50 [4]: 1400 nM |
| B29 | – | IC50 [3]: 4300 nM |
| B30 | – | IC50 [3]: 320 nM |
| B31 | 8300 nM | – |
| B32 | 2300 nM | – |
| B33 | 12000 nM | – |
| B34 | 1400 nM | – |
| B35 | 1400 nM | – |
| B36 | 560 nM | Kd [2]: 840 nM |
| B37 | 56 nM | Kd [2]: 71 nM |
| B38 | 15000 nM | – |
| B39 | 1300 nM | – |
| B40 | 310 nM | Kd [2]: 240 nM |
| B41 | 210 nM | Kd [2]: 170 nM |
| B42 | 1600 nM | – |
| B43 | 2400 nM | – |
| B44 | 1300 nM | – |
| B45 | 310 nM | – |
| B46 | 6700 nM | – |
| B47 | 1700 nM | – |
| B48 | 2100 nM | – |
| B49 | 2700 nM | – |
| B50 | 1100 nM | – |
| B51 | 13000 nM | – |

Reference: patent US20110039779A1 (published 2011)
